In paper PMC3437384:

Target: cardiac troponin I (cTnI), rat wild type (rat) (UniProt P23693)
Test: ITC

| Substance | dH [kcal/mol] | stoichiometry N |
| --- | --- | --- |
| cardiac troponin C (cTnC), rat wild type (from UniProt Q4PP99 1-161) (natural protein) | -3.85 | 1 |
| cardiac troponin C L48Q variant, cTnC(L48Q) (from UniProt Q4PP99 1-161) (natural protein) | – | 1 |
